Consider one compound from ChEMBL document CHEMBL4613315, “Design of First-in-Class Dual EZH2/HDAC Inhibitor: Biochemical Activity and Biological Evaluation in Cancer Cells” (ACS Med Chem Lett, 2020).

Protein sequences, listed by entry. Tags and fused reporters are not part of them.
UniProt Q15910, whole entry, looked up: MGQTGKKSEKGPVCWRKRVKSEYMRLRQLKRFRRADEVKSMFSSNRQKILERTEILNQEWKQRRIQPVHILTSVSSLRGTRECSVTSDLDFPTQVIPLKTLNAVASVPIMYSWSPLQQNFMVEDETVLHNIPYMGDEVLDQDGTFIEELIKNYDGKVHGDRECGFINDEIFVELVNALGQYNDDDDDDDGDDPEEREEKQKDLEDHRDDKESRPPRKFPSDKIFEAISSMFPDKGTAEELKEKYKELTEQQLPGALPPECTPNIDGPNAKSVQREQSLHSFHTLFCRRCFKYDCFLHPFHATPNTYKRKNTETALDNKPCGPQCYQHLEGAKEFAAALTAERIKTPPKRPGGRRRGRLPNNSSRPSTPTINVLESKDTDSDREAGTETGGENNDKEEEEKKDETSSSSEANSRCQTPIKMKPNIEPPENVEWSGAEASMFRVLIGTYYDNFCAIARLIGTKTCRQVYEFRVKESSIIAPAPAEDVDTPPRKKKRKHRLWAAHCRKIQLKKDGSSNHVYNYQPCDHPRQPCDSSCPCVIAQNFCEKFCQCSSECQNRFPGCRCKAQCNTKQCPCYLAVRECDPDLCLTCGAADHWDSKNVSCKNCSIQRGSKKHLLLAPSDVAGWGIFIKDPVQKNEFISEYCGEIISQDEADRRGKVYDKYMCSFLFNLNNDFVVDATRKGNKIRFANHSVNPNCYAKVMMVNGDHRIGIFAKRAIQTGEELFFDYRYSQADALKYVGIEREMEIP

Holding throughout (format): cell-based
The target of assay [1] is T1, Histone-lysine N-methyltransferase EZH2 (Homo sapiens, UniProt Q15910). The assay is described as follows: Inhibition of EZH2 in human U937 cells assessed as H3K27me3 level at 50 uM incubated for 120 hrs by Western blot analysis. The conditions noted are these: U-937. Background: In western blotting, separated proteins are transferred to a membrane and probed.
In assay [2] the target is T1, Histone-lysine N-methyltransferase EZH2. Briefly: Inhibition of EZH2 in human RH4 cells assessed as H3K27me3 level at 50 uM incubated for 72 hrs by Western blot analysis.
Assay [3] shares this target. The assay is described as follows: Inhibition of EZH2 in human RH4 cells assessed as H3K27me3 level at 50 uM incubated for 96 hrs by Western blot analysis.
Assay [4] shares this target. The assay is described as follows: Inhibition of EZH2 in human U937 cells assessed as H3K27me3 level at 50 uM incubated for 96 hrs by Western blot analysis. The following applies: U-937.
Assay [5] addresses T2, Protein deacetylase HDAC6 (Homo sapiens) (UniProt Q9UBN7).
T2 sequence (whole entry): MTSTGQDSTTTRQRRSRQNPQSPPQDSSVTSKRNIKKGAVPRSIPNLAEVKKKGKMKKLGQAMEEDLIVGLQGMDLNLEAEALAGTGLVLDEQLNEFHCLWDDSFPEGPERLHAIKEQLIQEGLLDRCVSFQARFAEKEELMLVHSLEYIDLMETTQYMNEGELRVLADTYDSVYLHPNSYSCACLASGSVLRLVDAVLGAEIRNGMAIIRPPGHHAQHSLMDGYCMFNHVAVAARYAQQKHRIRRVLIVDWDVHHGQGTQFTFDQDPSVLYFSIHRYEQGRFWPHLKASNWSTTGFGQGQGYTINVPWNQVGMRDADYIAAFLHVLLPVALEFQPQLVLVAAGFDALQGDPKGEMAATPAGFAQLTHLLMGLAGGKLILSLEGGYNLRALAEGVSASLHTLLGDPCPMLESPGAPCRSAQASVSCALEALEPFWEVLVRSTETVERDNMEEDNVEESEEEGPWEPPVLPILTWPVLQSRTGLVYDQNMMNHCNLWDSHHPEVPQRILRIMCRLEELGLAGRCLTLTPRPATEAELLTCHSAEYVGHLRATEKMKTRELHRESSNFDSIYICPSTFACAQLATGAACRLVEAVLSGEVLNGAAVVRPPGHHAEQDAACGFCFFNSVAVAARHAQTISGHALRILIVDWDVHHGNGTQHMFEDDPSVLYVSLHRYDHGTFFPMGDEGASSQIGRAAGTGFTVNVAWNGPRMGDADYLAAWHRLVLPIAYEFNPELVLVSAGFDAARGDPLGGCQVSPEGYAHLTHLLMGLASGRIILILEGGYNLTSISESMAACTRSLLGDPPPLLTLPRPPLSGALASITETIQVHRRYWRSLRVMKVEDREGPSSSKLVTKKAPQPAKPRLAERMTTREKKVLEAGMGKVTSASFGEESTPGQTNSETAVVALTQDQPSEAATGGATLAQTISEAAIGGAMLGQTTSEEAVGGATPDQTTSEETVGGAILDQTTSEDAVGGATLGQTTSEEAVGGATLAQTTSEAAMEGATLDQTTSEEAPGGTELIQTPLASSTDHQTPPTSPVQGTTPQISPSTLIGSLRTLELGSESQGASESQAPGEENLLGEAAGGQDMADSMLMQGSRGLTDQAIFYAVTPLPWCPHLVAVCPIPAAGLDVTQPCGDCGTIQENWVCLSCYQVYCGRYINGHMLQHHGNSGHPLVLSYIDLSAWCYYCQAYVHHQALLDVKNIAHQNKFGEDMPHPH
The assay is described as follows: Inhibition of HDAC6 in human RH4 cells assessed as acetylated alpha-tubulin level at 50 uM incubated for 72 hrs by Western blot analysis.

For assay [6], the target named is T2, Protein deacetylase HDAC6 (Homo sapiens). Briefly: Inhibition of HDAC6 in human RH4 cells assessed as acetylated alpha-tubulin level at 50 uM incubated for 96 hrs by Western blot analysis.

Structures are written as SMILES.

Regarding `Cc1cc(C)c(CNC(=O)c2cc(C)n(-c3cccc(NC(=O)CCCCCCC(=O)NO)c3)c2C)c(=O)[nH]1`, the fold change (FC) in assay [1] was 5.4; in assay [2] it was 0.3; in assay [3] it was 0.6; in assay [4], 1.1; in assay [5] it was 13.4; in assay [6], 3.8.
